For orientation: inhibition means the relative decrease from the control value, in per cent.

Only a part is listed here, and it is no random draw. Some structures show a salt or complex split into parts, the way the source records it. The source made the active and inactive calls. Rule as the data show it: active = inhibition mostly above about 24% (no sharp cut-off); inactive = mostly below about 32%.

From PubChem BioAssay AID2071 (Sanford-Burnham Center for Chemical Genomics, 2009) come the findings set out here.

The nature of this experiment: NALP1 inflammasome inhibitors in reconstituted yeast, colorimetric, S. cerevisiae, triplicate retest (AID 2071). Conditions: S. cerevisiae NALP1/ASC/caspase-1 growth, X-gal OD620, 72 h; at 10 µM; stronger effect = higher value.
For the molecule `O=C(OCCN1CCN(CCOCc2ccccc2)CC1)C(O)(c1ccccc1)c1ccccc1`, the inhibition is inactive: 37.6%.
In the case of `O=C(OC1CN2CCC1CC2)c1ccc([N+](=O)[O-])cc1` (stereo not given), the inhibition is active: 38.8%.
Regarding `COc1ccc2c(c1O)-c1c(O)c(OC)cc3c1[C@H](C2)[N+](C)(C)CC3.O=[N+]([O-])c1cc([N+](=O)[O-])c([O-])c([N+](=O)[O-])c1[O-]`, the inhibition is inactive: 7.8%.
`CC(C)c1ccc(OP(C)(=O)Nc2ccc(SC(F)(F)F)cc2)cc1` (stereo not given): the inhibition was inactive: 37.5%.
Turning to `CP(=O)(Nc1ccccc1F)Oc1ccccc1` (stereo not given), the inhibition is inactive: 22%.
On to `CCN(CC)CCCOC(=O)C(O)(c1ccccc1)C1CCCCC1` (stereo not given), for which the inhibition was inactive: 5.7%.
The value for `O=[N+]([O-])c1cc([N+](=O)[O-])c(OC2CCCCC2O)c([N+](=O)[O-])c1` (stereo not given) was inactive: -8.9%; that for `CCCCCOc1ccc(NP(C)(=O)Oc2ccc(Cl)cc2Cl)cc1` (stereo not given) was inactive: 16.1%; that for `CP(=O)(Nc1ccccc1)Oc1ccc(F)cc1` (stereo not given) was inactive: 7%.
On to `COc1ccc(OP(C)(=O)Nc2ccc(SC(F)(F)F)cc2)cc1` (stereo not given), for which the inhibition is inactive: 10.4%.
For `CCOC(=O)c1ccc(NP(C)(=O)Oc2ccc(F)cc2)cc1` (stereo not given), the inhibition was inactive: 25.2%.
As to `Cc1cc(-c2cccc3ccccc23)c(C)cn1.O=[N+]([O-])c1cc([N+](=O)[O-])c(O)c([N+](=O)[O-])c1`, the inhibition was inactive: -6.6%.
For the molecule `O=[N+]([O-])c1cc([N+](=O)[O-])c(NCC2CCS(=O)(=O)C2)c([N+](=O)[O-])c1` (stereo not given), the inhibition was inactive: -7%.
On to `O=[N+]([O-])c1ccc(OP2(=O)COCCO2)cc1` (stereo not given), for which the inhibition was inactive: -4%.
Regarding `COc1ccc(OP(C)(=O)Nc2cccc(Br)c2)cc1` (stereo not given), the inhibition is inactive: -15.9%.
Consider `COc1ccc(NP(C)(=O)Oc2ccccc2OC)cc1` (stereo not given), for which the inhibition was inactive: 7.9%.
`CN(C)CCOC(=O)C(O)(c1ccccc1)C1CCCCC1` (stereo not given): the inhibition was inactive: 29.7%.
For the molecule `CP(=O)(Nc1ccc2c(c1)OCCO2)Oc1ccccc1` (stereo not given), the inhibition was inactive: 4.2%.
In the case of `Cc1ccccc1NP(C)(=O)Nc1ccccc1C`, the inhibition is inactive: -0.2%.
In the case of `CP(=O)(Nc1ccc(SC(F)(F)F)cc1)Oc1ccc(F)cc1` (stereo not given), the inhibition is inactive: 14.6%.
The value for `CCOP(C)(=S)SCC(=O)NC(C)(CC)C(=O)O` (stereo not given) was inactive: 27.5%; that for `CP(=O)(Nc1ccc(Cl)cc1)Oc1ccc(F)cc1` (stereo not given) was inactive: -0.2%; that for `CC(C)(C)c1ccc(OP(C)(=O)O)cc1` was inactive: 0.5%.
Consider `COc1ccccc1OP(C)(=O)Nc1ccccc1Br` (stereo not given), for which the inhibition was inactive: 15.3%.
Take `CN(C)C(=O)c1c([N+](=O)[O-])cc([N+](=O)[O-])cc1[N+](=O)[O-]`: the inhibition is inactive: 1.3%.
In the case of `CCN(CC)CC(O)COC(=O)C(O)(c1ccccc1)C1CCCCC1` (stereo not given), the inhibition is inactive: 11.5%.
The value for `COc1ccc(OP(C)(=O)Nc2ccc(Br)cc2)cc1` (stereo not given) was inactive: 33.7%.
As for `CP(=O)(Oc1ccccc1)N1CCOC1=O` (stereo not given), the inhibition was inactive: -26.3%.
As for `CCc1ccc(OP(C)(=O)Nc2cccnc2)cc1` (stereo not given), the inhibition was inactive: 8.9%.
On to `COc1ccccc1OP(C)(=O)Nc1c(C)n(C)n(-c2ccccc2)c1=O` (stereo not given), for which the inhibition was inactive: 8.1%.
Turning to `O=C(OCCCN1CCCC1)C(O)(c1ccccc1)C1CCCCC1` (stereo not given), the inhibition was inactive: 20.5%.
As to `CP(=O)(OC12CC3CC(CC(C3)C1)C2)OC12CC3CC(CC(C3)C1)C2`, the inhibition is inactive: -1.3%.
With `CCOC(=O)c1ccc(NP(C)(=O)Oc2ccc(Cl)cc2)cc1` (stereo not given), the inhibition was inactive: 22.4%.
Take `Cc1nc2ccc3ccccc3c2o1.O=[N+]([O-])c1cc([N+](=O)[O-])c(O)c([N+](=O)[O-])c1`: the inhibition was inactive: 25%.
The value for `CP(=O)(OCCOc1ccccc1)OCCOc1ccccc1` was inactive: 5%; that for `CP(=O)(Nc1ccc(Cl)cc1Cl)Oc1ccccc1` (stereo not given) was inactive: -27.4%.
Take `Cc1cc(C)cc(OP(C)(=O)Nc2cccc(C(F)(F)F)c2)c1` (stereo not given): the inhibition is inactive: 2.3%.
Take `COc1ccc(OP(C)(=O)Nc2ccccc2Br)cc1` (stereo not given): the inhibition is inactive: 33.7%.
Turning to `COc1ccccc1OP(C)(=O)Nc1ccc(C)c(C)c1` (stereo not given), the inhibition was inactive: 0.3%.
Then `O=[N+]([O-])c1cc([N+](=O)[O-])c(Nc2ccccn2)c([N+](=O)[O-])c1`, with inactive: 11%.
Turning to `Cc1c(NP(C)(=O)Oc2ccc(C(C)C)cc2)c(=O)n(-c2ccccc2)n1C` (stereo not given), the inhibition is inactive: 3.2%.
For `CCc1ccc(OP(C)(=O)O)cc1`, the inhibition is inactive: 7.3%.
Consider `CP(=O)(Nc1ccccn1)Oc1ccccc1` (stereo not given), for which the inhibition was inactive: 26.5%.
For the molecule `COc1ccccc1OP(C)(=O)Nc1ccc(C)cc1C` (stereo not given), the inhibition was inactive: 2.9%.
Then `CN(C)CCOC(=O)C(O)(c1ccccc1)C1CCCC1` (stereo not given), with inactive: 18.3%; and `COc1ccc(OP(C)(=O)Nc2ccccn2)cc1` (stereo not given), with inactive: 13.5%; and `CCN(CC)CCCOC(=O)C(O)(c1ccccc1)c1ccccc1`, with inactive: 11.3%.
As to `CCOC(=O)c1ccc(NP(C)(=O)Oc2ccccc2)cc1` (stereo not given), the inhibition was inactive: 15.5%.
Then `COc1ccccc1OP(C)(=O)Nc1ccc(C)cc1` (stereo not given), with inactive: 11.3%; and `Cc1ccc(NP(C)(=O)Oc2ccccc2)c(C)c1` (stereo not given), with inactive: 7.2%; and `COc1ccccc1OP(C)(=O)Nc1cc(Cl)ccc1C` (stereo not given), with inactive: -3.9%.
`COc1ccc(OP(C)(=O)Nc2cccc(F)c2)cc1` (stereo not given): the inhibition is inactive: -4.3%.
On to `Cc1cc(C)cc(OP(C)(N)=O)c1` (stereo not given), for which the inhibition was inactive: -2.7%.
For `CC(C)(C)c1ccc(OP(C)(=O)Nc2ccc(SC(F)(F)F)cc2)cc1` (stereo not given), the inhibition was inactive: 12.7%.
Then `Cc1cccc(C)c1OP(C)(N)=O` (stereo not given), with inactive: 8.6%; and `O=[N+]([O-])c1ccc2c(c1)C=Nc1ccccc1O2`, with inactive: 8.8%.
As to `CP(=S)(Nn1cnnc1)Oc1ccccc1` (stereo not given), the inhibition was inactive: 0.6%.
Turning to `COc1ccccc1OP(C)(=O)Nc1ccccc1` (stereo not given), the inhibition is inactive: 3.6%.
For the molecule `CP(=O)(Nc1ccccc1Br)Oc1ccccc1` (stereo not given), the inhibition is inactive: 31.9%.
Then `CCOP(C)(=S)SCC(=O)NC(C)C(=O)O` (stereo not given), with inactive: 16%.
On to `CCOC(=O)c1ccc(NP(C)(=O)Oc2ccc(OC)cc2)cc1` (stereo not given), for which the inhibition was inactive: 14.8%.
For `CP(=O)(Nc1ccccn1)Oc1ccc(Cl)cc1` (stereo not given), the inhibition was inactive: 2.1%.
For `Cc1cccc(C)c1OP(C)(=O)Nc1ccc(SC(F)(F)F)cc1` (stereo not given), the inhibition is inactive: 19.1%.
As to `CP(=O)(Oc1ccccc1)OC(c1ccccc1)C(F)(F)F` (stereo not given), the inhibition is inactive: -7%.
Then `CP(=O)(NC(=O)Nc1ccccc1)Oc1ccccc1` (stereo not given), with inactive: -15.4%; and `Cc1cc(C)cc(OP(C)(=O)Nc2ccc(SC(F)(F)F)cc2)c1` (stereo not given), with inactive: 31.3%; and `Cc1nc2ccc3ccccc3c2s1.O=[N+]([O-])c1cc([N+](=O)[O-])c(O)c([N+](=O)[O-])c1`, with inactive: 22.4%.
In the case of `O=[N+]([O-])c1cc([N+](=O)[O-])c(-n2nnc3ccccc32)c([N+](=O)[O-])c1`, the inhibition is inactive: 8.5%.
Take `CN1CCCCC1COC(=O)C1(O)c2ccccc2CCc2ccccc21` (stereo not given): the inhibition is inactive: 17%.
Then `COc1ccccc1OP(C)(=O)Nc1c(C)cccc1C` (stereo not given), with inactive: -14.2%.
In the case of `CP(=O)(Nc1ccc(SC(F)(F)F)cc1)Oc1ccccc1` (stereo not given), the inhibition was inactive: 23.5%.
Regarding `CCCOc1ccc(NP(C)(=O)Oc2ccc(Cl)cc2)cc1` (stereo not given), the inhibition is inactive: -14.2%.
Then `O=[N+]([O-])c1cc([N+](=O)[O-])c(Nc2nnnn2CCO)c([N+](=O)[O-])c1`, with inactive: 6.2%.
For the molecule `CCOC(=O)C(CC)C1=NC(C)(C)Cc2ccccc21.O=[N+]([O-])c1cc([N+](=O)[O-])c(O)c([N+](=O)[O-])c1` (stereo not given), the inhibition is inactive: -3.8%.
Consider `CC1=NCCc2c1[nH]c1ccccc21.O=[N+]([O-])c1cc([N+](=O)[O-])c(O)c([N+](=O)[O-])c1`, for which the inhibition is active: 57.5%.
As to `CP(=O)(Nc1cccc(Br)c1)Oc1ccccc1` (stereo not given), the inhibition is inactive: 11.8%.
As to `Cc1cc(C)cc(OP(C)(=O)Nc2ccccn2)c1` (stereo not given), the inhibition is inactive: -8.5%.
Then `Cc1ccc(C)c(NP(C)(=O)Oc2ccccc2)c1` (stereo not given), with inactive: 0.9%.
As to `Cc1cc(C)cc(OP(C)(=O)Nc2ccc(C)cc2C)c1` (stereo not given), the inhibition was inactive: 10.3%.
`CCOC(=O)c1ccc(NP(C)(=O)Oc2cc(C)cc(C)c2)cc1` (stereo not given): the inhibition was inactive: 8%.
